# Data from article PMC6254723, “Synthesis and Pharmacological Screening of Several Aroyl and Heteroaroyl Selenylacetic Acid Derivatives as Cytotoxic and Antiproliferative Agents” (Molecules, 2009).
# System: PC-3 cell line
# Assay: MTT cytotoxicity assay in PC-3
# Conditions: read-out: IC50 (cytotoxic activity in PC-3 cell line); as repeated in Table 5; NE = no effect
# Experimental: The results are tabulated as IC50 values. All experiments were independently performed at least three times and the values were calculated after 72 hours exposure (drug concentrations of 2, 5, 7 and 10 μM).
# PC-3 cells were seeded in 96-well plates (Millipore, Eschborn, Germany) at a density of 5 × 10^3 cells per well. The samples were incubated at 37 °C under 5% CO2 overnight prior to the addition of the compounds. Compounds were diluted in complete medium. After 3 days of incubation, 10 μL MTT solution (5 mg/mL in PBS) was added to the cells in each well and these were stored for an additional 4 h at 37 °C. […] The percentage of viable cells was calculated to obtain IC50-values.
# PC-3 are human tumorigenic and metastatic prostate cancer cells and these were obtained from American Type Culture Collection (ATCC, Manassas, VA, USA) (passage 36).
substance,measurement,value
(3-phenyl-propanonylselenyl)acetic acid [Compound 12],IC50,> 10 µM
